## scFv variants of Ab-14 (light chain) against a SARS-CoV-2 spike peptide

Source: Li et al. 2023 (doi:10.1038/s41467-023-39022-2), MIT Lincoln Laboratory and A-Alpha Bio; data file from the FLAb repository.

The target is the same throughout: PDVDLGDISGINAS, from the HR2 region of SARS-CoV-2 spike.

Ab-14 is the parent antibody, in scFv form: VH, then three GGGGS repeats, then VL. The heavy chain is unchanged in all variants.
VH: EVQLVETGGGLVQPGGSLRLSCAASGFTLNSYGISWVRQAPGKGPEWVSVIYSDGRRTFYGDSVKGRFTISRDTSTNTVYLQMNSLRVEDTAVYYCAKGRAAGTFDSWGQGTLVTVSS
VL: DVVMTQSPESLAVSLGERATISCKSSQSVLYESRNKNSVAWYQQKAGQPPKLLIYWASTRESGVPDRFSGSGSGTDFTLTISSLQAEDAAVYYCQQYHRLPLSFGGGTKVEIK

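The starting antibody came from a phage panning campaign against this peptide. Designed CDR sequences, proposed from the first random library and measured here. Their group label is 14L_En_Gibbs (En: ensemble of fine-tuned language models; Gibbs: Gibbs sampling). The scFvs were displayed on barcoded MATa yeast, the peptide on MATalpha yeast. Mating (16 h, 30 °C) was followed by selection of diploids and sequencing of their barcodes. Read counts were normalised to the haploid input and turned into Kd by a linear fit to BCL2-family pairs of known affinity, for each replicate. The assay was run in six technical replicates.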

Variants are written as CDR1, CDR2 and CDR3 of the light chain (limits as in the source). Parent: KSSQSVLYESRNKNSVA, WASTRES, QQYHRLPLS.
Values are log10 of the apparent Kd in nM; lower means stronger binding.
Where no diploid with the target was found in that replicate, the entry reads "ND": below detection, most likely a poor binder, though not proof of it.
As a blank, each scFv also met three strains without target: over all light chain designs, 4% of these pairings were detected, typically at 2.64 and seldom below 1.59. For each scFv, signals with the empty controls are counted beside the result, with their mean in brackets.
The parent sequence was in this pool as ten entries: three were never detected, three once, and four in most replicates, with averages from 0.34 to 2.37.
Values of this round are not directly comparable with the first-round values of the same sequences.
The authors averaged sequences with at least three values out of six and counted those with two or fewer as poor binders.

CDR-L1 | CDR-L2 | CDR-L3 | log10 Kd (nM) by replicate | signal with controls
KLQWYPLEIRDTGSAVA | EAATKYN | QQYMRLPLM | ND ND ND ND ND 1.58 | 0/18
KLYERGEISSKVDRSIA | EMSTRCE | QSYQRLPLS | 0.79 0.65 0.62 0.28 0.77 1.31 | 1/18 (3.55)
HSSPSVLYDSRNKNSVA | NASTRES | QQYHRLPLS | 0.04 -0.37 -0.21 -0.12 -0.05 0.07 | 1/18 (2.72)
RITYKAEQLERINSSVA | NGSARCF | QQYFMLPLS | 2.72 1.68 2.17 2.71 1.74 2.73 | 2/18 (2.64)
NMRLNEGEIAQHGYAIA | GVDLRAA | QQYARLPLH | 0.90 1.34 0.94 1.32 1.22 1.46 | 0/18
QIQSESEVDYKDKNSMA | DSECKAA | QQYFRLPLM | 0.65 0.79 0.73 0.30 0.44 0.64 | 0/18
QLDQAYRVGDLWKQSIA | HGSMRVQ | QCYERLPLS | 1.63 1.69 1.55 1.63 1.94 1.78 | 0/18
SMSNLQIVPDVWKNSIA | DAEHVEY | QQYSRLPLT | 0.90 0.65 0.61 0.56 0.67 0.46 | 1/18 (2.01)
RLTEHQYMRAYANAAVA | DASTRND | QQYHRLPLE | 0.85 0.30 0.48 0.85 0.56 0.89 | 0/18
HIQSESEHPYKDKNSMA | DAHCKAA | QQYFRLPLM | 0.48 0.40 0.70 0.64 0.53 0.72 | 2/18 (2.32)
QYSMNLEIYDQEQWNVA | HGEMRTE | QQYHKLPLS | 0.76 0.69 0.55 0.72 0.57 0.69 | 1/18 (3.07)
KLDHYKLGENGMRGSIA | NMTIREY | QQYFHLPLF | 0.55 0.53 0.43 0.38 0.38 0.71 | 2/18 (3.61)
KLQWQQYGENQQEAAIA | NETTVAQ | QQYAKLPLT | 2.17 0.62 0.69 1.09 0.89 1.30 | 1/18 (3.13)
KVQNGLERGNQGYSAVA | DVTEKGA | QQYLQLPLM | 1.27 1.54 1.06 1.20 1.34 1.34 | 1/18 (2.54)
SVAMLLDQQYAKGANIA | NAAELVV | QQYYRLPLT | ND ND ND ND ND ND | 0/18
SVTIEMDQQQEQYNSVA | GEQKTAD | QQYGRLPLS | 1.53 1.78 1.31 1.85 1.03 1.89 | 0/18
KVSDPMVEWYANQSAVA | DHADVQH | QQYDRLPLS | ND 2.54 ND 2.68 ND 2.67 | 1/18 (3.49)
RIQDHMAVGTMSGSSIA | EEATWMD | QQYSRLPLA | ND 0.63 ND ND ND ND | 0/18
MLTMFANENAGKSKNIA | DTNQLNT | QQYQRLPFM | 0.44 0.47 0.27 0.26 0.39 0.52 | 0/18
QLEFERGQEWKQGAAIA | GNTESLH | QQYAMLPLS | 1.36 1.58 2.02 ND 1.97 1.28 | 1/18 (1.71)
KLNDAYQGDIANNQNIA | SADMLNH | QQYNKLPLS | 0.41 0.22 0.27 0.08 0.10 0.29 | 1/18 (2.91)
KIKLSNSVSLRGTRAIA | DGSTRAH | QQYHRLPLT | 0.84 0.52 0.53 0.43 0.78 0.94 | 2/18 (2.87)
KMWDYEYGTNAMNSAIA | NASLESD | QQYDRLPLT | ND ND ND ND ND ND | 0/18
SMGWAHENGDNKMNSIA | DETHLAY | QQYSRLPIT | 0.40 -0.02 -0.09 -0.06 -0.11 0.17 | 1/18 (2.72)
HVPNYPENFTSAKQNIA | DQSATTS | QQYDRLPLA | ND ND ND ND ND ND | 0/18
KLDMFIPSQWEWDASIA | GATLRNT | QDYARLPLS | 1.65 1.21 1.14 1.18 0.89 0.71 | 0/18
KMMLSLGEFKQSEDNVA | NMRVSVA | QQYDHLPLT | ND 3.08 2.69 2.99 ND ND | 1/18 (1.72)
TLVDWIQGGTWAKKNVA | DESTRVN | QQYYRLPLS | 0.04 0.07 0.13 -0.07 0.17 0.23 | 0/18
RLQIDDNGYEGMRNNVA | DGGMVRM | QQYARLPLM | 0.43 0.79 0.36 0.76 0.61 0.64 | 1/18 (1.59)
KLRNDFMENKQNQSNIA | AHHESIK | QQYSMLPLS | ND 1.90 1.26 2.93 ND 2.09 | 0/18
HVHSLMAIWQEISNNIA | DAQNRNA | QQYFRLPLA | 1.02 ND ND 2.20 ND 0.75 | 0/18
GLSNQETEQIQHANSIA | DRDERDV | QQYAHLPLS | 0.25 -0.08 0.08 0.21 0.08 0.42 | 0/18
KLMQSLQGEPKDWYAVA | EGESATT | QQYARLPLM | ND 3.17 2.37 4.21 ND ND | 1/18 (1.96)
QLEWLEINGQSVGNSIA | ARVQEQE | QQYFRLPLT | ND ND ND ND ND ND | 0/18
GHDHTMESGKQAPNSIA | NAEQKTI | QQYQRLPLS | 0.86 0.01 -0.11 0.22 0.24 1.09 | 0/18

The opening 5 entries, copied out:

| CDR-L1 | CDR-L2 | CDR-L3 | log10 Kd (nM) by replicate | signal with controls |
|---|---|---|---|---|
| KLQWYPLEIRDTGSAVA | EAATKYN | QQYMRLPLM | ND ND ND ND ND 1.58 | 0/18 |
| KLYERGEISSKVDRSIA | EMSTRCE | QSYQRLPLS | 0.79 0.65 0.62 0.28 0.77 1.31 | 1/18 (3.55) |
| HSSPSVLYDSRNKNSVA | NASTRES | QQYHRLPLS | 0.04 -0.37 -0.21 -0.12 -0.05 0.07 | 1/18 (2.72) |
| RITYKAEQLERINSSVA | NGSARCF | QQYFMLPLS | 2.72 1.68 2.17 2.71 1.74 2.73 | 2/18 (2.64) |
| NMRLNEGEIAQHGYAIA | GVDLRAA | QQYARLPLH | 0.90 1.34 0.94 1.32 1.22 1.46 | 0/18 |